Sequences of proteins named here, by UniProt entry; tags and fusion partners are left off. A change or cut given only in a name is not applied to a line headed by its entry.
UniProt O00329: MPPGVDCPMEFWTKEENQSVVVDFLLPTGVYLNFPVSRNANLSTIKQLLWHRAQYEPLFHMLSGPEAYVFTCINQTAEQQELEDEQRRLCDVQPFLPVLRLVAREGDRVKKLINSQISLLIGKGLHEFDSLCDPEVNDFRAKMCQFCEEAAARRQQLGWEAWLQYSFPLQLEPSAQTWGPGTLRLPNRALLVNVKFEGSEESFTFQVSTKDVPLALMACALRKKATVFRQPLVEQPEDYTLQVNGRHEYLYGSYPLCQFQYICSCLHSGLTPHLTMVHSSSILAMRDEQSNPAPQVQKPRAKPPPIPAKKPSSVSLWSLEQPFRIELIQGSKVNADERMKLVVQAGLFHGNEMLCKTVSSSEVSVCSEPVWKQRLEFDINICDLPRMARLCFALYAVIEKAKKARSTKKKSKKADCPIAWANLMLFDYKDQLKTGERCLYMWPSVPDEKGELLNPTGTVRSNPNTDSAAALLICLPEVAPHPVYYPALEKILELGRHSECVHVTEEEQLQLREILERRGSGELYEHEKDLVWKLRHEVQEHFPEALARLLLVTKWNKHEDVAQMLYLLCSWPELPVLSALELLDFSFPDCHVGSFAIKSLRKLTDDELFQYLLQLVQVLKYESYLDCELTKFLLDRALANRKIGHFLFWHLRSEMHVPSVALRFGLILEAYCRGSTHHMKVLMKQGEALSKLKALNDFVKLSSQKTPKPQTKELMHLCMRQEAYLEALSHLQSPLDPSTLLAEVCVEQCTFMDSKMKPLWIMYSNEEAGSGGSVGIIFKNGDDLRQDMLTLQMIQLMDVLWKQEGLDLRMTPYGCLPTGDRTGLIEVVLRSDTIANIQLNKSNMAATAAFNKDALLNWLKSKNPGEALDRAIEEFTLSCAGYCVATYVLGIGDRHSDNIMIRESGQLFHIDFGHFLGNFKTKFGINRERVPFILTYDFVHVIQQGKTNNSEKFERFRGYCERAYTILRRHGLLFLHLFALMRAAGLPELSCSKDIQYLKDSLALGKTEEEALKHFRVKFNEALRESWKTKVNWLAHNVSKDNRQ

In the Kinase Knowledgebase extract (Sharma et al. 2016):

Target: PIK3CD (Human) (UniProt O00329)
Assay: Assessment of PIK3CD Kinase Activity (Scintillation Proximity Assay)

Question: Which IC50 does the source give for `COc1c(C(C)n2nc(C(F)F)c3c(N)ncnc32)cc(Cl)c(C)c1C1CN(C(C)C)C1` (configuration not stated) here?
Answer: Its IC50 is at most 10 nM.

Question: `COc1c(C(C)n2nc(C)c3c(N)ncnc32)cc(Cl)c(F)c1C1CN(C(C)C)C1` (configuration not stated) was tested. Which IC50 did it give?
Answer: Its IC50 is at most 10 nM.

Question: How did the IC50 turn out when `CCOc1c(C(C)n2ccc(=O)c3c(N)ncnc32)cc(Cl)c(C)c1-c1ccc(C(=O)N(C)C)nc1` (configuration not stated) was run?
Answer: The IC50 was at most 10 nM.

Question: With `COc1c(C(C)n2nc(C)c3c(N)ncnc32)cc(Cl)c(C)c1C1CC(O)C1` (configuration not stated) as the molecule, how does the IC50 read?
Answer: The IC50 was at most 10 nM.

Question: `COc1c(C(C)n2nc(C)c3c(N)ncnc32)cc(C)c(C#N)c1-c1ccc(C(=O)N(C)C)nc1` (configuration not stated) was tested. Which IC50 did it give?
Answer: Its IC50 is at most 10 nM.

Question: Which IC50 does the source give for `COc1c(C(C)n2nc(C)c3c(N)ncnc32)cc(C)c(C#N)c1-c1cncc(S(C)(=O)=O)c1` (configuration not stated) here?
Answer: Its IC50 is at most 10 nM.

Question: How did the IC50 turn out when `CCOC(=O)C(C)(C)N1CC(c2c(C#N)c(Cl)cc(C(C)n3nc(C)c4c(N)ncnc43)c2OCC)C1` (configuration not stated) was run?
Answer: The IC50 was at most 10 nM.
